Values of other authors in US8329421B2, “Methods of predicting response of a neoplasm to an EGFR inhibitor and detecting interactions between EGFR and an EGFR regulatory protein” (Ventana Medical Systems, Inc., priority 2007, dated 2012).
Values joined by “and” are separate entries in the source; they are usually repeats but may differ in a detail not shown here. Equal entries are not always repeated. Where two headings read alike, the source gives them in different places.

System: advanced colorectal cancer
Details: patients with advanced colorectal cancer, cited from earlier work

## cetuximab
Cetuximab alone
  response rate: 10.5% and 10.8%
Combined therapy with irinotecan
  response rate: 22.5% and 22.9%
